Results taken from article PMC5537225, “Therapeutic efficacy of a respiratory syncytial virus fusion inhibitor” (Nature Communications, 2017).

Test system: HBV
Assay: HBV assay in HepG2.117 cells (HBV DNA qPCR)
Format: cell-based
Conditions: Hepatitis B virus, mean of at least 3 experiments

CS(=O)(=O)CCCn1c(Cn2c(=O)n(CC(F)(F)F)c3ccncc32)cc2cc(Cl)ccc21 [JNJ-53718678]
EC50: 26.8 µM
